Assay results: patent US8461128B2, “Anti-microbial agents and uses thereof” (priority 2005, dated 2013)

Tested on: M. tuberculosis H37Rv
Type: cell-based, Mycobacterium tuberculosis

SMILES: NNC(=O)c1ccncc1 [isoniazid, reference compound]
- iron-deficient media selectivity: do not exhibit iron-deficient media selectivity
